From patent publication US10323013B2, “Inhibitors of the IRE-1/XBP-1 pathway and methods of using thereof” (H. LEE MOFFITT CANCER CENTER AND RESEARCH INSTITUTE, INC., priority 2013, dated 2019)

Chains of the proteins cited; added tags and fusions are not shown. Residues count along the entry.
UniProt O75460, 547-977 limits assumed: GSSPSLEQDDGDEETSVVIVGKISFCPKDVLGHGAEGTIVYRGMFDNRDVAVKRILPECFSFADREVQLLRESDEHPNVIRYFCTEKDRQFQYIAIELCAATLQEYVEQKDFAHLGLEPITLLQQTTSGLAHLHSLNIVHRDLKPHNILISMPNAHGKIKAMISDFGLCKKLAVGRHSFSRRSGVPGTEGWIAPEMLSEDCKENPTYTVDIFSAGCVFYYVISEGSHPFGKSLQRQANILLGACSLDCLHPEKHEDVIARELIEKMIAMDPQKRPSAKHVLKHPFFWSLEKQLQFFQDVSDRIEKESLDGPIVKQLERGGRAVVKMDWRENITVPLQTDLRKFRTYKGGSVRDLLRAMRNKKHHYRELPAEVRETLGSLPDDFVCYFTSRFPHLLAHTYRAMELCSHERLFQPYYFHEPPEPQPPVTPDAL
UniProt Q9EQY0, 21-977 limits assumed: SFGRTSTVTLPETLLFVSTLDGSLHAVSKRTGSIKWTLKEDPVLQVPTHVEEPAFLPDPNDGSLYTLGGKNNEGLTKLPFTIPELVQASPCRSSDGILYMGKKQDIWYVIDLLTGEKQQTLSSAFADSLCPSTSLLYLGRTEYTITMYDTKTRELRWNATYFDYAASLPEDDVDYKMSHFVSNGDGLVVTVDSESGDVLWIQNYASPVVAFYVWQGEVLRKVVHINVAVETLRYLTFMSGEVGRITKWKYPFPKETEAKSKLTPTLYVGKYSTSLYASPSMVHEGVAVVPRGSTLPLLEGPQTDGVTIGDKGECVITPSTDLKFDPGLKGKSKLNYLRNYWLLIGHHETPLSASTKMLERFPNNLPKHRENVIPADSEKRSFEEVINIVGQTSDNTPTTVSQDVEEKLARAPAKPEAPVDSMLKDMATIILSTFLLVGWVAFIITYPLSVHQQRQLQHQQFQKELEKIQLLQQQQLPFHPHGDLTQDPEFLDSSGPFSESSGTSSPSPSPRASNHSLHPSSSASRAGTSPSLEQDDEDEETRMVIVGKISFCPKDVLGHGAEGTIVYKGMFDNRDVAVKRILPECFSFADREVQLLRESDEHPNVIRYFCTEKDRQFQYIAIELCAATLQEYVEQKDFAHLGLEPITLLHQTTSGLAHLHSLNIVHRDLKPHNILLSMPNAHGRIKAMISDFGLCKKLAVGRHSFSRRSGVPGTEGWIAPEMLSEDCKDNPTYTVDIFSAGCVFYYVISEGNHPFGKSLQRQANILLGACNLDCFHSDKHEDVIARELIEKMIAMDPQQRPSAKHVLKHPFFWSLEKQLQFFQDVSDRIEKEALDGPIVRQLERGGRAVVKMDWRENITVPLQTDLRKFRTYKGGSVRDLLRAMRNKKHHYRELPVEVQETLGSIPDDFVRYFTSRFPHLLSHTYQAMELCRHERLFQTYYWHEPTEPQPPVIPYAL

Experiments:
XBP-1s expression = assay: Inhibition of XBP-1s expression in LPS-stimulated mouse B cells (immunoblots); type: cell-based; settings: LPS 48 h, then inhibitor 20 μM for 24 h (Example 3 prints 20 mM)
XBP-1 mRNA splicing = XBP-1 mRNA splicing by RT-PCR; type: cell-based, human; settings: MEC1 and MEC2 cells, 20 μM, 48 h
recombinant hIRE-1 = recombinant hIRE-1 (Homo sapiens (Human), UniProt O75460); assay: In vitro IRE-1 RNase FRET-suppression assay; type: biochemical; settings: read-out: IC50 in FRET-suppression assay; 5 nM hIRE-1, 50 nM XBP-1 RNA
IRE-1 = IRE-1 (Mus musculus (Mouse), UniProt Q9EQY0); assay: Pull-down of IRE-1 from mouse B cell lysates with biotin-tagged derivative; settings: anti-biotin antibody on protein G-conjugated agarose beads

IC50 (recombinant hIRE-1) [nM] | pull-down of IRE-1 (in words) (IRE-1) | SMILES | inhibition of XBP-1s expression (in words) (XBP-1s expression) | inhibition of XBP-1 mRNA splicing and XBP-1s expression (in words) (XBP-1 mRNA splicing)
– | – | O=Cc1c(O)ccc2c3c(c(=O)oc12)CNCC3 | potently suppress | can inhibit splicing of XBP-1 mRNA and expression of XBP-1s
136 | can pull down IRE-1 | O=Cc1c(O)ccc2c3c(c(=O)oc12)CN(C(=O)CCCCCNC(=O)CCCC[C@@H]1SC[C@@H]2NC(=O)N[C@@H]21)CC3 | – | –
